In US11744873B2, “Compositions and methods for the treatment of metabolic and liver disorders” (Viking Therapeutics, Inc., priority 2021, dated 2023):

Legend:
[1] = tested on: mice fed Gubra amylin NASH (GAN) diet; assay: Biological effects in GAN diet NASH mice; format: in vivo; conditions: after two weeks, 10 mg/kg group
Method: NASH was induced in mice by feeding mice a Gubra amylin NASH (GAN) diet as described in Boland et al. World J Gastroenterol. 2019, 25(33): 4904-4920. One week prior to administration of a first dose of compounds, the mice were weighed and randomized, and their food intake was measured. Mice were randomly assigned to dosing groups, with twelve mice per group. […] Compound dose titration (nmol/kg): 0.6 (day 0), 1.2 (day 1), 2.4 (day 2), 4.8 (day 3), 4.8 (day 4), 12 (day 5), 30.0 (from day 6).
After two weeks, animals were sacrificed. Plasma enzymes (P-ALT (alanine aminotransferase) and P-AST (aspartate aminotransferase)), total plasma triglycerides, and total plasma cholesterol were measured, and terminal necropsy of each liver was carried out, determining relative liver weight as a percentage of body weight, assaying total liver biochemistry including total liver triglycerides, plasma insulin and total liver cholesterol, as well as histological evaluation of Galectin-3, and alpha-smooth muscle actin.

GIP receptor = target: T1, GIP receptor (Homo sapiens, UniProt P48546); assay: HSA modulated binding assay, GIP receptor; conditions: binding with 2% HSA to binding with 0% HSA
T1 sequence (P48546 22-466): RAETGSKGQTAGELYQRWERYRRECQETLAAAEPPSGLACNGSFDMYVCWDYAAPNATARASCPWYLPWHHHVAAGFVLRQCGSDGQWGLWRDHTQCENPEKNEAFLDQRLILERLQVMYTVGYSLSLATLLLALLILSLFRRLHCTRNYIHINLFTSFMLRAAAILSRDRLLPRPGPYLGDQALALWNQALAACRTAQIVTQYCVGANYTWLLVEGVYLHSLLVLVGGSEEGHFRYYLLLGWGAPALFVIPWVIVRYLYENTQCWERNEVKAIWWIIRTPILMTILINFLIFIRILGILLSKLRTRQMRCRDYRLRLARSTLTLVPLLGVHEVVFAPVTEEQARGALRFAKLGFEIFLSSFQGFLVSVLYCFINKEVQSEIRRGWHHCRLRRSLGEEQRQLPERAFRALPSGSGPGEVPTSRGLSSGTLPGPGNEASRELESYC

Substance: tirzepatide [reference compound]
- Gal-3 Relative ([1]; liver Galectin-3, histological quantitative assessment): 6.7 ± 0.5 percent fractional area
- TG Relative ([1]; liver triglycerides, GAN diet NASH mice): 42 ± 6 mg per/ g liver
- α-SMA Relative ([1]; liver α-smooth muscle actin, histological quantitative assessment): 5.3 ± 0.8 percent fractional area
- Ratio of HSA/No HSA (GIP receptor): 5.82
